Data reported in ChEMBL document CHEMBL5108045, “Identification and Utilization of a Chemical Probe to Interrogate the Roles of PIKfyve in the Lifecycle of β-Coronaviruses” (J Med Chem, 2022).

Amino acid sequences for entries named in this document (tags omitted). A change or cut given only in a name is not applied to a line headed by its entry.
UniProt Q9Y2I7: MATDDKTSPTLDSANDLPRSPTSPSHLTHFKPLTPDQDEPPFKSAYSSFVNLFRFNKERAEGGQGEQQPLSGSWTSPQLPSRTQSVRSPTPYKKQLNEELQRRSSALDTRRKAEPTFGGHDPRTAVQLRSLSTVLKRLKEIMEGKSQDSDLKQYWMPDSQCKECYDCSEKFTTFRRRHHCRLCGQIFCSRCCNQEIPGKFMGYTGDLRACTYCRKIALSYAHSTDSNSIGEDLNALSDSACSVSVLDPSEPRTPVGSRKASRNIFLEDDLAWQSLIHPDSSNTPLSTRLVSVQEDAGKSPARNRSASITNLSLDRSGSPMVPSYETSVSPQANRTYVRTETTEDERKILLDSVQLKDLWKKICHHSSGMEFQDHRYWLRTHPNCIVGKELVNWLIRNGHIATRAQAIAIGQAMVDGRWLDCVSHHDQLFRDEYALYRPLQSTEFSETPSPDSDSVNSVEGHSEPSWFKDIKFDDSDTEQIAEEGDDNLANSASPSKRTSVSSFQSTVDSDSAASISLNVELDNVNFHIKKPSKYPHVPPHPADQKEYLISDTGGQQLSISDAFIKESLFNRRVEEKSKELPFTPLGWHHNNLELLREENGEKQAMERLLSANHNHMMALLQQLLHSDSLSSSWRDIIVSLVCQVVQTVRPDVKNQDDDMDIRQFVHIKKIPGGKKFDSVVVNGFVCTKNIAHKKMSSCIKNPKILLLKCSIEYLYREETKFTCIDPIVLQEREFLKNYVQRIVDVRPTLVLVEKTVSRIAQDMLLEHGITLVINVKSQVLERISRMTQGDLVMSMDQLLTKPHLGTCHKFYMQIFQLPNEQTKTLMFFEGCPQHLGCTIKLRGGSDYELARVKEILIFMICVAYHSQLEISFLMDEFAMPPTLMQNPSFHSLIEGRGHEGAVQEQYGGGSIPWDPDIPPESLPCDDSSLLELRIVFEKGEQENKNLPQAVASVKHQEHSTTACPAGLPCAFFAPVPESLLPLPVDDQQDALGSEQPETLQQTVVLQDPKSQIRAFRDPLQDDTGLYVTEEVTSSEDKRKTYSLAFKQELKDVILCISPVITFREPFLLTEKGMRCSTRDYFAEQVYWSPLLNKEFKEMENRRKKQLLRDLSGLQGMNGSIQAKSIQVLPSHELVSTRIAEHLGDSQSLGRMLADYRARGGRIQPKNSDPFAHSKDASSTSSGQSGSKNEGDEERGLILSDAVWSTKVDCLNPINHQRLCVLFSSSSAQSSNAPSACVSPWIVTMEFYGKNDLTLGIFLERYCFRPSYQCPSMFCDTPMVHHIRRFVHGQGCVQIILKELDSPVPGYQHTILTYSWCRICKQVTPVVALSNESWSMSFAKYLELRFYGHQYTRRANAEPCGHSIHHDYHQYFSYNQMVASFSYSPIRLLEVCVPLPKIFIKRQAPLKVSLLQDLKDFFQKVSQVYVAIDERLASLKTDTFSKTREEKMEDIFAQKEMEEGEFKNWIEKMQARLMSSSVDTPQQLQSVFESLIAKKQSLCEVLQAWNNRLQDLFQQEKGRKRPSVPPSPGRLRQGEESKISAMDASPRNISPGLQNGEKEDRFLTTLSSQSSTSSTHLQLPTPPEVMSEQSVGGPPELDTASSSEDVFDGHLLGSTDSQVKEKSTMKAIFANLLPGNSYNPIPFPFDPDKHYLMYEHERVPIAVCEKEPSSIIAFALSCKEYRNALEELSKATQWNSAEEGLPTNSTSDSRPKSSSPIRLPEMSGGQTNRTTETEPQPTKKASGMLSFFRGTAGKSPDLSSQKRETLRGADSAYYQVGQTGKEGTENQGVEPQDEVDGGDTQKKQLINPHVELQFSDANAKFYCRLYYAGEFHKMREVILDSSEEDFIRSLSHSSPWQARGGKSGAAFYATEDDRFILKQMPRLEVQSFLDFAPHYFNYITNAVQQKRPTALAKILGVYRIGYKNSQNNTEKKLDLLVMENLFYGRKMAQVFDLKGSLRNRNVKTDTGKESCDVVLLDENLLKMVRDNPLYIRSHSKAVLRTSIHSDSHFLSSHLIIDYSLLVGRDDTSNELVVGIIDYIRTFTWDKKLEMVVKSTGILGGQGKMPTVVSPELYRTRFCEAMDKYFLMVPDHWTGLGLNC

Assays:
[1] = biological target: T1, 1-phosphatidylinositol 3-phosphate 5-kinase (Homo sapiens, UniProt Q9Y2I7); assay: Inhibition of human GST tagged PIKFYVE (1493 to end residues) expressed in baculovirus-infected Sf9 cells using PI(3)P:PS as substrate incubated for 60 mins in presence of ATP by ADP-Glo assay
[2] = biological target: T1, 1-phosphatidylinositol 3-phosphate 5-kinase; assay: Inhibition of PIKFYVE in HEK293 cells by NanoBRET assay; type: cell-based

Nc1ncc2c(n1)-c1c([nH]c3ccc(C4CC4)cc13)CCCC2
IC50 [1]: 0.72 µM | IC50 [2]: > 10 µM
